According to USRE31836E, “Pharmaceutical and dietary composition” (priority 1984, dated 1985):
“And” between values parts separate entries of the source, which are not always exact repeats. Equal values may be shown once. “Also recorded” adds a separate entry of the source. Read-outs that look alike come from different tables or passages of the source.

Columns and labels:
[1] = system: conversion of DGLA to 1 series PGs (human platelets); assay: tissue or blood; format: cell-based
[2] = system: conversion of AA to 2 series PGs (human platelets); assay: tissue or blood; format: cell-based
[3] = Homo sapiens, Platelet, read-out: PGE1 level (product of DGLA metabolism)
[4] = Homo sapiens, Platelet, read-out: PGF1α level (product of DGLA metabolism)
[5] = Homo sapiens, Platelet, read-out: TXB1 level (product of DGLA metabolism)

SMILES: CCO [Ethyl alcohol, ethyl alcohol]
- DGLA conversion to PGE1, PGF1 and TXB1 (total as % of control) [1]: 160 and 200 and 230
- effect on DGLA conversion [1]: dose-related and substantial rise
- effect on conversion of DGLA to 1 series PGs [1]: greatly enhancing their production
- effect on formation of PGE1 [1]: dose dependent rise in formation of PGE 1
- enhancement in the amount of 14C-DGLA converted to PGE1 [1]: up to 60%
- minimal effective concentration ([1]; Homo sapiens, Platelet, read-out: threshold of the effect on conversion of DGLA to 1 series PGs): 200 to 300 µg/mL
- AA conversion to PGE2, PGF2 and TXB2 (total as % of control) [2]: 110 and 90 and 100
- effect on arachidonate metabolism [2]: little effect on arachidonate metabolism
- effect on conversion of arachidonate to PGs and particularly thromboxanes [2]: tends to inhibit conversion of arachidonate to PGs and particularly thromboxanes
- effect on thromboxane B2 formation [2]: inhibition of thromboxane B2 formation
- variation in AA conversion [2]: not significant
- minimal effective concentration ([2]; Homo sapiens, Platelet, read-out: concentration from which there is a significant effect on conversion of AA to 2 series compounds): > 3000 µg/mL

SMILES: O=C1O[C@H]([C@@H](O)CO)C(O)=C1O [Vitamin C, ascorbic acid]
- activity at 10 µg/mL [1, 3]: 134%
- activity at 33 µg/mL [1, 3]: 144%
- activity at 100 µg/mL [1, 3]: 184%
- activity at 10 µg/mL [1, 4]: 107%
- activity at 33 µg/mL [1, 4]: 123%
- activity at 100 µg/mL [1, 4]: 150%
- activity at 10 µg/mL [1, 5]: 130%
- activity at 33 µg/mL [1, 5]: 147%
- activity at 100 µg/mL [1, 5]: 171%

SMILES: C=CCN1CC[C@]23c4c5ccc(O)c4O[C@H]2C(=O)CC[C@@]3(O)[C@H]1C5 [naloxone]
- antagonism by naloxone of the opioid effect on 1 series PG formation [1]: abolished by naloxone; also recorded: The effect of l-levorphanol can be blocked by naloxone
- effect on inhibition of conversion of DGLA to PGE1 by l-levorphanol [1]: reverses an effect of 1-levorphanol
- reversal of block of PGE1 formation by opiate drugs and opioids [1]: can be reversed by opiate antagonists such as naloxone
- antagonism by naloxone of the opioid effect on 1 series PG formation ([1]; naloxone with β-endorphin): this effect can also be reversed by naloxone
